In the experiment the target is BTK (Homo sapiens (Human), UniProt Q06187). In words: Btk in vitro inhibitory activity (one of Method A TR-FRET, Method B electrophoretic mobility shift, Method C radiometric filter binding). The class given is biochemical. A general note: A gel shift assay detects complexes by their altered migration in electrophoresis.
Setting [1] is: determined using one of the methods of Example 355a, 355b and 355c, read-out: BTK IC50.

Chains of the proteins cited; added tags and fusions are not shown. Lines headed by an entry give the natural chain unless they say otherwise; changes in a name come on top.
UniProt Q06187: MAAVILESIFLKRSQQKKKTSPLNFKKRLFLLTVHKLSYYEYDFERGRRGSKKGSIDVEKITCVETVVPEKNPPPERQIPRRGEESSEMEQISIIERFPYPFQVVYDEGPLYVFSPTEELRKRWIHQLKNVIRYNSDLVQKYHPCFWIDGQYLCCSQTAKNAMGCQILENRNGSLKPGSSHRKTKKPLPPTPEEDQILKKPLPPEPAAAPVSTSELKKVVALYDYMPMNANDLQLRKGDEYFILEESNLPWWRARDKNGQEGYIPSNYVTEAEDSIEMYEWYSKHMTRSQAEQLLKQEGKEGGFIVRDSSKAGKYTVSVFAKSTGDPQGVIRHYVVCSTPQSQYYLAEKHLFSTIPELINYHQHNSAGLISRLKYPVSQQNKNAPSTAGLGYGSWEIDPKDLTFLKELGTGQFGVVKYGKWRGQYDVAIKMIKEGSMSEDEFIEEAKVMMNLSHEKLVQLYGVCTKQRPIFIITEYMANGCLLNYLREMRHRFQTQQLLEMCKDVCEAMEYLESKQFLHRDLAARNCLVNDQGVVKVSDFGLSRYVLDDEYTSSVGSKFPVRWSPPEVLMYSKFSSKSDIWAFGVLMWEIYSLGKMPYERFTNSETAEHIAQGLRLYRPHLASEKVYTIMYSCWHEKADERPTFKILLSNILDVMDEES

Like-named read-outs stand apart in the source and are kept apart here.

The text below walks through data of patent US9656988B2 (Pharmacyclics LLC, priority 2013, dated 2017).

The IC50 is the concentration at which inhibition is half-maximal. In the case of `NC(=O)c1nnc(N2CCC[C@@H](N)C2)nc1Nc1ccc(C(=O)N2CCOCC2)cc1` [Example 1, (R)-3-(3-aminopiperidin-1-yl)-5-(4-(morpholine-4-carbonyl)phenylamino)-1,2,4-triazine-6-carboxamide], the IC50 under setting [1] lay within 1000 to 10000 nM.
On the same count and under the same terms, under `CC(C)(C)c1ccc(C(=O)N[C@@H]2CCCN(c3nnc(C(N)=O)c(Nc4ccc(C(=O)N5CCOCC5)cc4)n3)C2)cc1` [Example 2, (R)-3-(3-(4-tert-butylbenzamido)piperidin-1-yl)-5-(4-(morpholine-4-carbonyl)phenylamino)-1,2,4-triazine-6-carboxamide] stands below 10 nM; under `NC(=O)c1nnc(N2CCC[C@@H](NC(=O)c3cnc4ccccc4c3)C2)nc1Nc1ccc(C(=O)N2CCOCC2)cc1` [Example 18, (R)—N-(1-(6-carbamoyl-5-(4-(morpholine-4-carbonyl)phenylamino)-1,2,4-triazin-3-yl)piperidin-3-yl)quinoline-3-carboxamide], 10 to 100 nM.
In the case of `CCC(=O)N[C@@H]1CCCN(c2nnc(C(N)=O)c(Nc3ccc(C(=O)N4CCOCC4)cc3)n2)C1` [Example 21, (R)-5-(4-(morpholine-4-carbonyl)phenylamino)-3-(3-propionamidopiperidin-1-yl)-1,2,4-triazine-6-carboxamide], the IC50 under setting [1] lay within 10 to 100 nM.
On the same count and under the same terms, for `C=CC(=O)N[C@@H]1CCCN(c2nnc(C(N)=O)c(Nc3ccc(C(=O)N4CCOCC4)cc3)n2)C1` [Example 22, (R)-3-(3-acrylamidopiperidin-1-yl)-5-(4-(morpholine-4-carbonyl)phenylamino)-1,2,4-triazine-6-carboxamide] the value was below 10 nM; for `NC(=O)c1nnc(N2CCC[C@@H](NC(=O)C3CCC3)C2)nc1Nc1ccc(C(=O)N2CCOCC2)cc1` [Example 26, (R)-3-(3-(cyclobutanecarboxamido)piperidin-1-yl)-5-(4-(morpholine-4-carbonyl)phenylamino)-1,2,4-triazine-6-carboxamide], 10 to 100 nM; for `N#CCC(=O)N[C@@H]1CCCN(c2nnc(C(N)=O)c(Nc3ccc(C(=O)N4CCOCC4)cc3)n2)C1` [Example 27, (R)-3-(3-(2-cyanoacetamido)piperidin-1-yl)-5-(4-(morpholine-4-carbonyl)phenylamino)-1,2,4-triazine-6-carboxamide], 10 to 100 nM.
Regarding `CC(=O)N1CCC(C(=O)N[C@@H]2CCCN(c3nnc(C(N)=O)c(Nc4ccc(C(=O)N5CCOCC5)cc4)n3)C2)CC1` [Example 34, (R)-3-(3-(1-acetylpiperidine-4-carboxamido)piperidin-1-yl)-5-(4-(morpholine-4-carbonyl)phenylamino)-1,2,4-triazine-6-carboxamide], under setting [1], the IC50 lay in the range of 10 to 100 nM.
Take `NC(=O)c1nnc(N2CCC[C@@H](NS(=O)(=O)C3CC3)C2)nc1Nc1ccc(C(=O)N2CCOCC2)cc1` [Example 40, (R)-3-(3-(cyclopropanesulfonamido)piperidin-1-yl)-5-(4-(morpholine-4-carbonyl)phenylamino)-1,2,4-triazine-6-carboxamide]: the IC50 under setting [1] fell in the range of 10 to 100 nM.
For `CC(C)N[C@@H]1CCCN(c2nnc(C(N)=O)c(Nc3ccc(C(=O)N4CCOCC4)cc3)n2)C1` [Example 42, (R)-3-(3-(isopropylamino)piperidin-1-yl)-5-(4-(morpholine-4-carbonyl)phenylamino)-1,2,4-triazine-6-carboxamide], under setting [1], the IC50 fell in the range of 100 to 1000 nM.
On the same count and under the same terms, for `NC(=O)c1nnc(N2CCC[C@@H](NC3CCCC3)C2)nc1Nc1ccc(C(=O)N2CCOCC2)cc1` [Example 43, (R)-3-(3-(cyclopentylamino)piperidin-1-yl)-5-(4-(morpholine-4-carbonyl)phenylamino)-1,2,4-triazine-6-carboxamide] the value was 100 to 1000 nM.
On to `Cc1ccc(C(=O)N[C@@H]2CCCN(c3nnc(C(N)=O)c(Nc4ccc(C(=O)N5CCOCC5)cc4)n3)C2)s1` [Example 87, (R)-3-(3-(5-methylthiophene-2-carboxamido)piperidin-1-yl)-5-(4-(morpholine-4-carbonyl)phenylamino)-1,2,4-triazine-6-carboxamide], for which the concentration for half-maximal inhibition (IC50) is, setting by setting: under setting [1], 10 to 100 nM; (read-out: Btk (IC50)) 10 to 100 nM.
For the compound `Cc1cnc(C(=O)N[C@@H]2CCCN(c3nnc(C(N)=O)c(Nc4ccc(C(=O)N5CCOCC5)cc4)n3)C2)s1` [Example 92, (R)—N-(1-(6-carbamoyl-5-(4-(morpholine-4-carbonyl)phenylamino)-1,2,4-triazin-3-yl)piperidin-3-yl)-5-methylthiazole-2-carboxamide], the IC50 under setting [1] is below 10 nM and the IC50 (read-out: Btk (IC50)) is below 10 nM.
In the case of `Cc1csc(C(=O)N[C@@H]2CCCN(c3nnc(C(N)=O)c(Nc4ccc(C(=O)N5CCOCC5)cc4)n3)C2)n1` [Example 98, (R)—N-(1-(6-carbamoyl-5-(4-(morpholine-4-carbonyl)phenylamino)-1,2,4-triazin-3-yl)piperidin-3-yl)-4-methylthiazole-2-carboxamide], the IC50 reads like this: under setting [1], 10 to 100 nM; (read-out: Btk (IC50)) 10 to 100 nM.
As to `CCn1nnc2cc(C(=O)N[C@@H]3CCCN(c4nnc(C(N)=O)c(Nc5ccc(C(=O)N6CCOCC6)cc5)n4)C3)ccc21` [Example 100, (R)—N-(1-(6-carbamoyl-5-(4-(morpholine-4-carbonyl)phenylamino)-1,2,4-triazin-3-yl)piperidin-3-yl)-1-ethyl-1H-benzo[d][1,2,3]triazole-5-carboxamide], the IC50 by setting is: under setting [1], below 10 nM; (read-out: Btk (IC50)) below 10 nM.
Turning to `CN(C)C(=O)N[C@@H]1CCCN(c2cnc(C(N)=O)c(Nc3ccc(C4CCN(c5ccccc5)CC4)cc3)n2)C1` [Example 211, (R)-5-(3-(3,3-dimethylureido)piperidin-1-yl)-3-(4-(1-phenylpiperidin-4-yl)phenylamino)pyrazine-2-carboxamide], the IC50 runs as follows: under setting [1], 10 to 100 nM; (read-out: Btk (IC50)) 10 to 100 nM.
Consider `CN(C)C(=O)N[C@@H]1CCCN(c2cnc(C(N)=O)c(Nc3ccc(C4CCCCC4)cc3)n2)C1` [Example 212, (R)-3-(4-cyclohexylphenylamino)-5-(3-(3,3-dimethylureido)piperidin-1-yl)pyrazine-2-carboxamide], for which the IC50 by setting is: under setting [1], 100 to 1000 nM; (read-out: Btk (IC50)) 100 to 1000 nM.
Regarding `CN1CCN([C@@H]2CCCN(c3cnc(C(N)=O)c(Nc4ccc(C5(C)CCN(C6CCC6)CC5)cc4)n3)C2)C1=O` [Example 212], for the setting “read-out: Btk (IC50)”, the IC50 was below 10 nM.
Take `C[C@@H]1[C@H](NC(=O)c2ccccc2)CCCN1c1cnc(C(N)=O)c(Nc2ccc(C3CCN(C4CCCC4)CC3)cc2)n1` [Example 234, 5-((2R,3R)-3-benzamido-2-methylpiperidin-1-yl)-3-(4-(1-cyclopentylpiperidin-4-yl)phenylamino)pyrazine-2-carboxamide]: the IC50 by setting is: under setting [1], below 10 nM; (read-out: Btk (IC50)) below 10 nM.
For `C[C@H]1[C@H](NC(=O)c2ccccc2)CCCN1c1cnc(C(N)=O)c(Nc2ccc(C3CCN(C4CCCC4)CC3)cc2)n1` [Example 235, 5-((2S,3R)-3-benzamido-2-methylpiperidin-1-yl)-3-(4-(1-cyclopentylpiperidin-4-yl)phenylamino)pyrazine-2-carboxamide], the IC50 was 100 to 1000 nM (Btk (IC50)) and 100 to 1000 nM under setting [1].
In the case of `CN1CCN([C@@H]2CCCN(c3cnc(C(N)=O)c(Nc4ccc(C5(C)CCN(C6COC6)CC5)cc4)n3)C2)C1=O` [Example 265, (R)-3-(4-(4-methyl-1-(oxetan-3-yl)piperidin-4-yl)phenylamino)-5-(3-(3-methyl-2-oxoimidazolidin-1-yl)piperidin-1-yl)pyrazine-2-carboxamide], under setting [1], the IC50 was below 10 nM.
On the same count and under the same terms, for `CN1CCN([C@@H]2CCCN(c3cnc(C(N)=O)c(Nc4ccc(C5(C)CCN(C6CCC6)CC5)cc4)n3)C2)C1=O` [Example 266] the value was below 10 nM.
Turning to `NC(=O)c1ncc(N2CCC[C@@H](N3CCCC3=O)C2)nc1Nc1ccc(C2CCN(C3CCCC3)CC2)cc1` [Example 306, (R)-3-(4-(1-cyclopentylpiperidin-4-yl)phenylamino)-5-(3-(2-oxopyrrolidin-1-yl)piperidin-1-yl)pyrazine-2-carboxamide], the IC50 under setting [1] is below 10 nM and the IC50 (read-out: Btk (IC50)) is below 10 nM.
`NC(=O)c1ncc(N2CCC[C@@H](N)C2)nc1Nc1ccc(C2CCN(C3CC3)CC2)cc1` [Example 308, (R)-5-(3-aminopiperidin-1-yl)-3-(4-(1-cyclopropylpiperidin-4-yl)phenylamino)pyrazine-2-carboxamide]: the IC50 lay in the range of 100 to 1000 nM under setting [1] and 100 to 1000 nM (read-out: Btk (IC50)).
